# Antibody variant affinities, Ab-14 light chain, assay 1

Data: MIT Lincoln Laboratory AlphaSeq set, Engelhart et al. 2022, doi:10.1038/s41597-022-01779-4, as distributed in FLAb.

Antigen: PDVDLGDISGINAS, a 14-residue peptide of the SARS-CoV-2 spike HR2 region.

Each scFv is VH, a (GGGGS)3 linker, VL, as in the parent Ab-14, and differs from it in the CDRs of the light chain only.
VH: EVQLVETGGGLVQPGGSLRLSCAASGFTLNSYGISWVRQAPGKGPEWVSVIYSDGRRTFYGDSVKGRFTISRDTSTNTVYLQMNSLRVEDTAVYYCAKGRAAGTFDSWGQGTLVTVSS
VL: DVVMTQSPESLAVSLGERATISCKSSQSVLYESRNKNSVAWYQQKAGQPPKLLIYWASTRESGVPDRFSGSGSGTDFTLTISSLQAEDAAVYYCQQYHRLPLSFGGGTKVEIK

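The starting antibody came from a phage panning campaign against this peptide. The library (AAYL50) carries one to three amino acid substitutions per variant, with no insertions or deletions. In AlphaSeq, yeast of one mating type display the scFv and yeast of the other type display the target. Mating (16 h, 30 °C) was followed by selection of diploids and sequencing of their barcodes. Each replicate has its own calibration line, from reference interactions of the BCL2 family. Each pool was mated in three replicate cultures.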

The parent's light chain CDRs are KSSQSVLYESRNKNSVA, WASTRES, QQYHRLPLS; each variant's own CDRs replace them letter for letter.
All variants listed here change S28 of the VL, counted from its first residue.
Kd is apparent (estimated from mating counts) and averaged on the log scale over replicates with a signal. Smaller is tighter.
A pair that was not seen in any replicate is written "nd"; this usually means weak binding, but a binder can also be missed.

The variant KSSQPVLYESRNKNSVA | WASTRES | QQYHRLPLD showed 21 nM (3 of 3 replicates). For KSSQTVSYESRNKNSVA | WASTRES | KQYHRLPLS, the assay gave nd (0 of 3 replicates). For KSPQKVLYESRFKNSVA | WASTRES | QQYHRLPLS, the assay gave 120 nM (3 of 3 replicates). The variant KISQIVLYESLNKNSVA | WASTRES | QQYHRLPLS gave 2.1 nM (3 of 3 replicates). For KSSQCVLYESRNKNSQA | KASTRES | QQYHRLPLS, the assay gave nd (0 of 3 replicates). The variant KSSQYVLYESRNSNSVA | WASTRES | QQYHRLPLS gave 83 nM (3 of 3 replicates). The variant KSSQLVLYESRNKNSVA | WASTRES | QQYHRWYLS gave 190 nM (3 of 3 replicates). The variant KRSQKVLYESRNKNSVA | WASTRFS | QQYHRLPLS gave 420 nM (2 of 3 replicates).

The variant KSSQWVLYESQNKNSRA | WASTRES | QQYHRLPLS gave 16 µM (3 of 3 replicates). The variant KSSQEVLYKSRNKNSVA | WASFRES | QQYHRLPLS showed 100 nM (3 of 3 replicates). The variant KSSQNVLYESRNKNSVA | FISTRES | QQYHRLPLS showed 4.4 nM (3 of 3 replicates). For KSSQNVLYESRNKNSVA | WASTRES | QQYYRLPLV, the assay gave 3.9 nM (3 of 3 replicates). With KSSQYVLYESRNKNSVA | WASTTES | QQYHRWPLS the result was 530 nM (3 of 3 replicates). The variant KSSQKVLYESRNKNSVA | PASTRES | QQYHRLPLS gave nd (0 of 3 replicates). For KSLQKVLYESREKNSVA | WASTRES | QQYHRLPLS, the assay gave 310 nM (3 of 3 replicates). For LSSQHVLYESRNKNSVA | WASTRES | QQYHRNPLS, the assay gave nd (0 of 3 replicates).

The variant NSSQQHLYESRNKNSVA | WASTRES | QQYHRLPLS gave 24 nM (3 of 3 replicates). The variant KSSQIVAYESVNKNSVA | WASTRES | QQYHRLPLS gave 52 µM (2 of 3 replicates). For KSSQWVLYESRNKNSVA | WASTRES | QQYHRIPLS, the assay gave 1.3 µM (1 of 3 replicates). The variant KSWQWVLYESRNKNSVA | WASTRDS | QQYHRLPLS gave nd (0 of 3 replicates). With KSSQGVLCESRTKNSVA | WASTRES | QQYHRLPLS the result was 1.1 µM (3 of 3 replicates). The variant KSSQHVLYESRNKNSVA | WASDRES | QQYHRLPYS gave nd (0 of 3 replicates). The variant KSSQFFLYESRNKNSVI | WASTRES | QQYHRLPLS showed nd (0 of 3 replicates). For KSSQQVLYESRWKNSVA | WASTRES | QQYHRLPLW, the assay gave 1.6 µM (2 of 3 replicates).

The variant KSSQTVLYESRNKGSVA | WASTRES | QQYHRLPLS gave nd (0 of 3 replicates). For KSSQDVLYESRNKNSVA | WLSTRES | QQYHRLPLA, the assay gave 1.5 µM (3 of 3 replicates). The variant KSSQGVLYESRNKNSVA | WASPRER | QQYHRLPLS gave nd (0 of 3 replicates). For KSRQCVLYERRNKNSVA | WASTRES | QQYHRLPLS, the assay gave 51 µM (3 of 3 replicates). The variant KSSQFVLYESRNFNSVA | WASTREK | QQYHRLPLS showed nd (0 of 3 replicates). For KSSQDVLYMSRNKISVA | WASTRES | QQYHRLPLS, the assay gave 690 nM (2 of 3 replicates). The variant KSSQQVLYESRNKNTVA | WASTRES | QQYHRLQLS showed 1.2 µM (3 of 3 replicates). For KSSQLVLYESRNKNSVA | WASTRES | QAHHRLPLS, the assay gave 10 nM (3 of 3 replicates).

The variant KSSQKVLYEGRNKNSVA | WASTRES | QQYHRLPVS showed 3.8 µM (2 of 3 replicates). With KSSQIVLYESRNKNSVA | WQSTRER | QQYHRLPLS the result was 16 µM (2 of 3 replicates). The variant KSSQMVLYESRNKNSVA | WASMRES | QQYHRLDLS gave nd (0 of 3 replicates). The variant KSSQNLLYESRNKNSVA | WASTRET | QQYHRLPLS showed 5.4 nM (3 of 3 replicates). The variant KSSQMVLYESRNKNSVA | WASTREE | NQYHRLPLS gave 5.8 nM (3 of 3 replicates). The variant FSSQPVLYESRNKNSVA | CASTRES | QQYHRLPLS gave 210 nM (3 of 3 replicates).

The first 4 entries again:

The variant KSSQPVLYESRNKNSVA | WASTRES | QQYHRLPLD showed 21 nM (3 of 3 replicates).
The variant KSSQTVSYESRNKNSVA | WASTRES | KQYHRLPLS showed nd (0 of 3 replicates).
The variant KSPQKVLYESRFKNSVA | WASTRES | QQYHRLPLS showed 120 nM (3 of 3 replicates).
The variant KISQIVLYESLNKNSVA | WASTRES | QQYHRLPLS showed 2.1 nM (3 of 3 replicates).

For reference, the parent read 4.4 nM as the reference entry and 48 nM as a member of this library.
Three control strains display no target. For library AAYL50, 18% of the pairings with them gave a signal, with a median of 15 µM and one signal in twenty below 970 nM, so weak values seen in few replicates may be background.